Measured values taken from patent US9248103B2, “Method for improving water solubility of slightly soluble substance” (Kabushiki Kaisha Sangi, priority 2012, dated 2016).

Assay: Dissolution test of poorly-soluble substances, 2nd fluid for disintegration test (pH 6.8) of the Japanese Pharmacopoeia;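 further: Comparative example rows not the inventive coated formulation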
Type: physicochemical
Settings: Alacepril

Structure (SMILES): CC(=O)SC[C@@H](C)C(=O)N1CCC[C@H]1C(=O)N[C@@H](Cc1ccccc1)C(=O)O [8-1, Alacepril]
- Dissolved amount, elution time 360 min: 2548.2 µg/mL
